Assay results published in patent US12014835B2, “Methods for evaluating therapeutic benefit of combination therapies” (Vanderbilt University, priority 2020, dated 2024).

Test system: PC9 cells
Assay: MuSyC drug combination screen with osimertinib, DIP rate, high-throughput in vitro assay
Format: cell-based
Details: drug-synergy diagram
Description: FIG. 2A illustrates a high-throughput pipeline for generating dose-response surfaces. Initial drug matrix is prepared on a 384-well plate and transferred to cells seeded at subconfluent densities. Cells are engineered to express a fluorescently tagged histone (H2B-RFP), allowing for cell counts using automated segmentation software. Each condition is imaged every 6-8 h, resulting in growth curves. The growth curves are fit to determine the drug-induced proliferation (DIP) rate (slope of dotted line, vide infra) to quantify drug effect. This matrix of DIP rates is fit to our equation to extract synergy parameters.
MuSyC was applied to evaluate the synergistic potency and efficacy of a 64-drug panel (see Table 1 for drugs, drug classes, nominal targets, and tested concentration ranges) in combination with osimertinib, a mutant EGFR-tyrosine kinase inhibitor recently approved for first-line treatment of EGFR-mutant NSCLC. The selected drugs span a diverse array of cellular targets that can be broadly grouped into four categories: kinases, receptors and channels, epigenetic regulators, and mitotic checkpoints, each with several sub-categories. The combinations were tested in PC9 cells, a canonical model of EGFR-mutant NSCLC using a high-throughput, in vitro, drug-screening assay (FIG. 2A). […]

Q: Which “synergistic efficacy (in words)” value does the source give for `CCC1=C[C@@H]2CN(C1)Cc1c([nH]c3ccccc13)[C@@](C(=O)OC)(c1cc3c(cc1OC)N(C)[C@H]1[C@@](O)(C(=O)OC)[C@H](OC(C)=O)[C@]4(CC)C=CCN5CC[C@]31[C@@H]54)C2` [vinorelbine] here?
A: upward shift along the axis of synergistic efficacy
